Reference: BindingDB's records for US10577360

Sequences of proteins named here, by UniProt entry; tags and fusion partners are left off. Residues count along the entry.
UniProt P54289, 25-956 limits assumed: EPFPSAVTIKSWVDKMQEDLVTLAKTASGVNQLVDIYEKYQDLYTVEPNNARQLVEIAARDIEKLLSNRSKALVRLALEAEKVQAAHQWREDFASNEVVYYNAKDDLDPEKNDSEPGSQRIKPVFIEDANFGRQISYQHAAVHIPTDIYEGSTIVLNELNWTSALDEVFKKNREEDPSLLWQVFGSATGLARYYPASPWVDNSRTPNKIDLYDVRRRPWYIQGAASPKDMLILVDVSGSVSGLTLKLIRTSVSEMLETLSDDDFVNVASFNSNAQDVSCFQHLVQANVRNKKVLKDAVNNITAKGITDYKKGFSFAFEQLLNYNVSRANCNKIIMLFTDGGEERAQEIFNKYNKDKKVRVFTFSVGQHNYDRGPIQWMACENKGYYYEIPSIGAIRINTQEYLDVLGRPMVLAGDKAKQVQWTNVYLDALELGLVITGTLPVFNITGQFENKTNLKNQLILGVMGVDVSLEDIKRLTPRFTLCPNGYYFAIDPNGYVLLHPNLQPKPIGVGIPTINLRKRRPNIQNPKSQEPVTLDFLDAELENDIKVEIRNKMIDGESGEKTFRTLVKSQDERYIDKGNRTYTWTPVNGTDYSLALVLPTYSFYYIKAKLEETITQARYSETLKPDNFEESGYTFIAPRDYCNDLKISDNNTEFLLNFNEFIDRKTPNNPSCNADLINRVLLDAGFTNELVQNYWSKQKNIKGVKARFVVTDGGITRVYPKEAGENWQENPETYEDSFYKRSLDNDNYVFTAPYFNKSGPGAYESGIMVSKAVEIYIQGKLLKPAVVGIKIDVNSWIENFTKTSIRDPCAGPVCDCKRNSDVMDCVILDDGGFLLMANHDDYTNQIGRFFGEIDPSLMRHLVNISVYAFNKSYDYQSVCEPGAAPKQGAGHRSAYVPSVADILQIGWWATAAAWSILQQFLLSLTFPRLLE
UniProt P54289, 957-1103 limits assumed: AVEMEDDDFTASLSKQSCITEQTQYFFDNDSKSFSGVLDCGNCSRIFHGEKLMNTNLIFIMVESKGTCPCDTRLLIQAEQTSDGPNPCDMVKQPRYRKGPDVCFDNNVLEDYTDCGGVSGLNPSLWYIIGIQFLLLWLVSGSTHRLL
UniProt P35372, whole entry: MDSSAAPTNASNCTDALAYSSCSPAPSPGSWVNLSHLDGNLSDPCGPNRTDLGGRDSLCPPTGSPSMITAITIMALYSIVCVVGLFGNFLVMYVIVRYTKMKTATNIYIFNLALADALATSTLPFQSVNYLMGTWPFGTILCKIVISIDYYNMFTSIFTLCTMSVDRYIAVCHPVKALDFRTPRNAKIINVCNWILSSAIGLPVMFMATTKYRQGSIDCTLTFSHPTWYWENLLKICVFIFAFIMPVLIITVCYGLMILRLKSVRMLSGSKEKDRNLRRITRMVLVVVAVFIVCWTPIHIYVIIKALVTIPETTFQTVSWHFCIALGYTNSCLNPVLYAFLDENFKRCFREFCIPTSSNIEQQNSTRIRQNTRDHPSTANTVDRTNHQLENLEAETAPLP

Key:
[1] = target: Voltage-dependent calcium channel subunit alpha-2/delta-1 (Homo sapiens, UniProt P54289)
[2] = target: Mu-type opioid receptor (Homo sapiens, UniProt P35372); test: ASSAY_NAME: Human mu-Opioid Receptor Radioligand Assay DESCRIPTION: To investigate binding properties of test compounds to human μ-opioid receptor, transfected CHO-K1 cell membranes and [3H]-DAMGO (Perkin Elmer, ES-542-C), as the radioligand, were used. The assay was carried out with 20 μg of membrane suspension, 1 nM of [3H]-DAMGO in either absence or presence of either buffer or 10 &#9

Row | SMILES | Ki [1] [nM] | Ki [2] [nM]
1 | O=C(c1cccs1)N(c1ccn(-c2ccccc2)n1)C1CCNC(Cc2ccccc2)C1 (stereo not drawn) | 2750 | –
2 | Cc1nnc(-c2cccc(-n3ccc(N(C(=O)c4cccc(O)c4)C4C[C@@H](C)N[C@@H](C)C4)n3)c2)o1 (stereo partly drawn) | 2750 | –
3 | O=C(c1cccs1)N(c1ccn(-c2ccccc2)n1)C1CCNCC1 | – | > 500
